Results: publication PMC8468607 (International Journal of Molecular Sciences, 2021)

Legend:
Format in all cases: cell-based
Hep3B cells = assay: Proliferation assay (MTT), Hep3B; conditions: Homo sapiens, HCC cell line, 48 h, mean ± S.E.M., read-out: IC50 against cell proliferation, Hep3B
Description: (§1) Human cancer cell lines derived from the liver (Hep3B, Huh7) and the lung (A549, H1299) were obtained from American Type Culture Collection (ATCC, Manassas, VA, USA). An H6c7 human normal pancreatic duct epithelial cell line was purchased from Kerafast (Boston, MA, USA). […] The media were supplemented with 10% fetal bovine serum (FBS) (Gibco/ThermoFisher Scientific) and 1% penicillin/streptomycin (Gibco/ThermoFisher Scientific). In the case of H6c7, the cells were maintained in a keratinocyte serum-free medium supplemented with a recombinant […] (rEGF) and bovine pituitary extract (Gibco/ThermoFisher Scientific).
(§2) HCC (Hep3B, Huh7) and NSCLC (A549, H1299) cell lines were seeded in a 96-well plate at a density of 2.5 × 10^4 cells/mL in complete media and allowed to adhere for 24 h. […] Then, the media were removed, and 200 µL of dimethyl sulfoxide (DMSO) (Duksan, Ansan, South Korea) was added to solubilize the formazan crystal. After a 30 min incubation, the absorbance was measured at 540 nm using a microplate reader (BMG LABTECH, Ortenberg, Germany).

Huh7 cells = assay: Proliferation assay (MTT), Huh7; conditions: Homo sapiens, Huh-7, HCC cell line, 48 h, mean ± S.E.M., read-out: IC50 against cell proliferation, Huh7
Description: as §1, §2

A549 cells = assay: Proliferation assay (MTT), A549; conditions: Homo sapiens, NSCLC cell line, 48 h, mean ± S.E.M., read-out: IC50 against cell proliferation, A549
Description: as §1, §2

H1299 cells = assay: Proliferation assay (MTT), H1299; conditions: Homo sapiens, NCI-H1299, NSCLC cell line, 48 h, mean ± S.E.M., read-out: IC50 against cell proliferation, H1299
Description: as §1, §2

IC50 (Hep3B cells): 15.2 ± 2.8 µM | IC50 (Huh7 cells): 9.1 ± 1.1 µM | IC50 (A549 cells): 37.3 ± 10 µM | IC50 (H1299 cells): 16.1 ± 2.8 µM
SMILES: COc1cc2nccc(Oc3ccc(NC(=O)C4(C(=O)Nc5ccc(F)cc5)CC4)cc3)c2cc1OC [Cabozantinib, cabozantinib, reference compound]
